Assay results taken from patent publication US20050288333A1 (priority 2004, published 2005).

Amino acid sequences for entries named in this document (tags omitted). Residues count along the entry.
UniProt Q05941, 23-502: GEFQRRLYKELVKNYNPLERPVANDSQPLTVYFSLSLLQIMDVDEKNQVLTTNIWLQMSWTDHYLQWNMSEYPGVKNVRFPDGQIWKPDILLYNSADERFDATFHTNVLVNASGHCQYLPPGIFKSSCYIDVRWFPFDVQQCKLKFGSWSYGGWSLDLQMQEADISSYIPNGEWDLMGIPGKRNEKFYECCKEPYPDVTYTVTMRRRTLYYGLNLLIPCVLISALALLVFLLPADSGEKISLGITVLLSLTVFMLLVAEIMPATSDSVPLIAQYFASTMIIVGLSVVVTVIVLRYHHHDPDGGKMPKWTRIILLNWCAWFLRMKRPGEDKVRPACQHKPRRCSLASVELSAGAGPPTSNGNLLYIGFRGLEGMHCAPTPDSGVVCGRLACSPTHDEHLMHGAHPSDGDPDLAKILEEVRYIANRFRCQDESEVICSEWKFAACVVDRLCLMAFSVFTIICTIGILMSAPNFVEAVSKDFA
UniProt P36544, 23-502: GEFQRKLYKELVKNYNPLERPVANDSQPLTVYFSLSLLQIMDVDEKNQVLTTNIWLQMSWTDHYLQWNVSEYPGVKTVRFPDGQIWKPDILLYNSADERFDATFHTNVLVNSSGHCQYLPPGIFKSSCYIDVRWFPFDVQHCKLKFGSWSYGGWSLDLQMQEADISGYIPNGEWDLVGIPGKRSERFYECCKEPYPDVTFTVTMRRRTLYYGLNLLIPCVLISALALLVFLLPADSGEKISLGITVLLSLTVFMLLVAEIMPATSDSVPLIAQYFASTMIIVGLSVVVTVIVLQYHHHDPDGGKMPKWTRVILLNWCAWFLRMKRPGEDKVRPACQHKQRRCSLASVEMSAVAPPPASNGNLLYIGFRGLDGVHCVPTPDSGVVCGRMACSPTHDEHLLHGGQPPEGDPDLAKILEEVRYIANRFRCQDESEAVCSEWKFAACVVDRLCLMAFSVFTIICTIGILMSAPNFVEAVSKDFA

Key:
α7 nicotinic receptors [1] = target: T1, α7 nicotinic receptors (Rattus norvegicus, UniProt Q05941); settings: read-out: α7 Ki
[2] = target: T2, rat α7 nicotinic receptors (Rattus norvegicus, UniProt Q05941); test: Agonist concentration-response on receptors expressed in X. laevis oocytes; assay type: cell-based; settings: for Rat Receptor Max. Response: apparent efficacy, normalized to ACh control
T2 construct: expressed in transfected cells; host or cells: Xenopus laevis oocytes

α7 nicotinic receptors [3] = target: T1, α7 nicotinic receptors; test: biochemical
[4] = target: T3, human α7 nicotinic receptors (Homo sapiens, UniProt P36544); test: Agonist concentration-response on receptors expressed in X. laevis oocytes; assay type: cell-based; settings: for Human Receptor Max. Response: apparent efficacy, normalized to ACh control
T3 construct: expressed in transfected cells; host or cells: Xenopus laevis oocytes

[5] = 125I-BTX Binding Ki(Ion), inhibitory concentration of the ionized form, calculated assuming only the cationic form interacts
[6] = calculated EC50 for just the ionized form, read-out: Rat Receptor EC50 (Ion), value in parentheses (converted)
[7] = rat α7 in X. laevis oocytes, integrated current, read-out: Rat Receptor EC50
[8] = calculated EC50 for just the ionized form, read-out: Human Receptor EC50 (Ion), value in parentheses (converted)
[9] = 125I-BTX Binding Ki ± S.E.M., rat brain membranes, radioligand 1 nM, mean±S.E.M. of four experiments
[10] = human α7 in X. laevis oocytes, integrated current, read-out: Human Receptor EC50

## 6′-Methyl-3-(2,4-dimethoxybenzylidene)anabaseine [GTS-57]
α7 nicotinic receptors [1]
  Ki: 50 nM

## COc1cc(O)ccc1C=C1CCCN=C1c1cccnc1 [Compound 4-OH-MBA, 3-(2-Methoxy-4-hydroxybenzylidene)anabaseine]
[2]
  Rat Receptor Max. Response: 0.77 ± 0.02

## CN(C)c1ccc(C=CC=C2CCCN=C2c2cccnc2)cc1 [DMACA, 3-(4-Dimethylaminocinnamylidene)anabaseine]
α7 nicotinic receptors [3]
  Ki: 70 nM

## Clc1ccc(C=C2CCCN=C2c2cccnc2)cc1 [GTS-8, 3-(4-Chlorobenzylidene)anabaseine]
α7 nicotinic receptors [3]
  Ki: 1100 nM

## COc1ccc(/C=C2\CCCN=C2c2cccnc2)c(OC)c1 [GTS-21, 3-(2,4-Dimethoxybenzylidene)anabaseine]
α7 nicotinic receptors [3]; [5]
  Ki: 81 nM
α7 nicotinic receptors [3]; Ki for inhibition of iodinated BTX binding calculated from saturation experiments, saturation (Scatchard) experiments
  Ki: 173 nM
[2]; [6]
  EC50: 1800 nM
[2]; [7]
  EC50: 2900 ± 80 nM
[4]; [8]
  EC50: 3700 nM

## Cc1ccc(C2=NCCCC2)cn1 [GTS-26, 6′-Methylanabaseine]
α7 nicotinic receptors [3]
  Ki: 400 nM

## Cc1ncccc1C1=NCCCC1 [GTS-27, 2′-Methylanabaseine]
α7 nicotinic receptors [3]
  Ki: > 10000 nM

## Cc1ccncc1C1=NCCCC1 [GTS-28, 4′-Methylanabaseine]
α7 nicotinic receptors [3]
  Ki: > 10000 nM

## COc1cc(OC)c(C=C2CCCN=C2c2cccnc2)c(OC)c1 [GTS-35, 3-(2,4,6-Trimethoxybenzylidene)anabaseine]
α7 nicotinic receptors [3]
  Ki: 58 nM

## Clc1ccc(C=C2CCCN=C2c2cccnc2)c(Cl)c1 [GTS-38, 3-(2,4-Dichlorobenzylidene)anabaseine]
α7 nicotinic receptors [3]
  Ki: > 10000 nM

## Cc1cc(C)c(C=C2CCCN=C2c2cccnc2)c(C)c1 [GTS-40, 3-(2,46,-Trimethylbenzylidene)anabaseine]
α7 nicotinic receptors [3]
  Ki: 1500 nM

## Cc1ccc(C=C2CCCN=C2c2cccnc2)cc1 [GTS-48, 3-(4-Methylbenzylidene)anabaseine]
α7 nicotinic receptors [3]
  Ki: 17000 nM

## COc1ccc(C=C2CCCN=C2c2cccnc2)c(O)c1 [GTS-51, 3-(2-Hydroxy-4-methoxybenzylidene)anabaseine]
α7 nicotinic receptors [3]; [9]
  Ki: 317 ± 67 nM
α7 nicotinic receptors [3]; [5]
  Ki: 105 nM
[2]
  Rat Receptor Max. Response: 0.82 ± 0.06
[2]; [6]
  EC50: 1100 nM
[2]; [7]
  EC50: 3300 ± 800 nM
[4]
  Human Receptor Max. Response: 0.53 ± 0.05
[4]; [8]
  EC50: 670 nM
[4]; [10]
  EC50: 2100 ± 800 nM

## Oc1ccc(C=C2CCCN=C2c2cccnc2)c(O)c1 [GTS-52, 3-(2,4-Dihydroxybenzylidene)anabaseine]
α7 nicotinic receptors [3]; [9]
  Ki: 203 ± 5 nM
α7 nicotinic receptors [3]; [5]
  Ki: 102 nM
[2]
  Rat Receptor Max. Response: 0.67 ± 0.03
[2]; [6]
  EC50: 2000 nM
[2]; [7]
  EC50: 3900 ± 600 nM
[4]
  Human Receptor Max. Response: 0.49 ± 0.02
[4]; [8]
  EC50: 1600 nM
[4]; [10]
  EC50: 3200 ± 500 nM

## COc1ccc(C=C2CCC[N+](C)=C2c2cccnc2)c(OC)c1 [GTS-58, 1-Methyl-3-(2,4-djmethoxybenzylidene)anabaseine trifluoroacetate]
α7 nicotinic receptors [1]
  Ki: > 20000 nM

## Cc1cncc(C2=NCCCC2)c1 [GTS-60, 5′-Methylanabaseine]
α7 nicotinic receptors [3]
  Ki: 80 nM

## COc1ccc(C=C2CCCN=C2c2ccccc2)c(OC)c1 [GTS-63, 2-Phenyl-3-(2,4-dimethoxybenzylidene)-4,5,6-trihydropyridine]
α7 nicotinic receptors [3]
  Ki: > 10000 nM

Structures can show the parent of a compound that is named as a salt. Where two headings read alike, the source gives them in different places.
